Earlier results, collected in article PMC6787468.

Legend:
[1] = target: T1, mGAT1 (GABA transporter 1, GAT1) (Mus musculus, UniProt P31648); assay: affinity selection MS (specific binding […]) with competitive MS Binding Assay; pKi from earlier in-house MS Binding Assays
[2] = target: T1, mGAT1 (GABA transporter 1, GAT1); assay: affinity selection MS, hit in three of three experiments, with competitive MS Binding Assay; pKi from earlier in-house MS Binding Assays

Row | pKi [1] | Compound | other results
1 | 8.13 pKi | Cc1ccccc1-c1ccccc1C#CCCN1CCCC(C(=O)O)C1 (stereo not drawn) | 
2 |  | O=C(O)C1CCCN(CC#CCC(c2ccccc2)c2ccccc2)C1 (stereo not drawn) | pKi ([1]; tested form: HCl): 7.81 pKi
3 | 7.04 pKi | Cc1ccsc1C(=CCCN1CCC=C(C(=O)O)C1)c1sccc1C | 
4 | 6.50 pKi | O=C(O)C1CCCN(CCOCCc2ccc(/N=N/c3cccc4ccccc34)cc2)C1 (stereo not drawn) | 
5 |  | O=C(O)C1CCCN(CCC/C=C/c2ccccc2-c2ccc(Cl)cc2Cl)C1 (stereo not drawn) | Ki [2]: 7.15 pKi
6 |  | O=C(O)C1=CCCN(CCO/N=C/c2ccccc2-c2ccc(F)cc2Cl)C1 | Ki ([2]; tested form: HCl): 7.83 pKi

Read-outs that look alike come from different tables or passages of the source.
